Assay outcomes as filed in PubChem.
Rows were chosen to be rich in hits. Some 0.91% of all compounds tested hit in one or more screens of this group.
C2C12 statin: protects C2C12 myotubes from simvastatin toxicity; ATP luminescence, 48 h; scaled: DMSO 0, geranylgeraniol control 100; rescue of ATP level, % at 7.49 µM; actives 0.78% (n = 330,000);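 active means mean ATP rescue above about 67%, or every replicate alone reaching that limit, limit read from the data, passing the limit was not always enough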;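 further: myotubes were challenged with 10 µM simvastatin during compound exposure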
Yeast UUG start: alters start codon recognition fidelity in yeast. S. cerevisiae UUG-firefly luciferase reporter, luminescence/redox ratio. AID 602363. activity score, % at 18.7 µM. hit rate 0.13% among 350,000;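 active = replicate mean at a twofold rise or more, about +100% in these data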;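 note: firefly luciferase made from a UUG start codon reports start codon fidelity; reporter light over untreated wells divided by growth signal over untreated wells; some hits fall short of that in this replicate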
PGC1a acetyl inh: lowers PGC1a acetylation signal in U2OS cells; inhibition, % at 15.6 µM; actives 0.17% (n = 350,000); AID 651687; AlphaScreen anti-acetyl-lysine; with virally co-expressed GCN5 acetyltransferase;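 active means every replicate shows inhibition of at least 40%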;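 further: 0% = neutral control wells and 100% = positive control wells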
FN deposition inh: fibronectin deposition inhibition; AH1F fibroblasts, Alexa488-fibronectin deposition fluorescence, overnight; inhibition, % at 12.6 µM; actives 0.086% (n = 350,000); AID 743247;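 active means mean inhibition across replicates of 30% or more, regardless of how many single replicates reach that level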;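 further: positive control wells lacked labelled fibronectin entirely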
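Material – AH1F fibroblast monolayer, labelled fibronectin deposition · Reagent – labelled fibronectin 24 nM · Timing – 1 h adhesion, overnight exposure · Measured by – fluorescence at 485 nm excitation, 525 nm emission · Read-out – inhibition of fibronectin deposition signal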
hiPSC survival: enhancers of human iPSC single-cell survival | hiPSC single-cell survival, ATPlite luminescence; 100% = ROCK inhibitor wells, 0% = DMSO | survival enhancement, % at 20 µM | actives 0.044% (n = 360,000); in the data active means survival enhancement above about 18%;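 further: cells exposed to compounds for 16 hours before the ATP read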
* marks the source's active call; other numbers are inactive results; x = no result.

SMILES | C2C12 statin | Yeast UUG start | PGC1a acetyl inh | FN deposition inh | hiPSC survival
CCOCCc1nnc(NC(=O)C(CC)c2ccccc2)s1 (stereo unspecified) | 116* | -13 | 4 | -7 | 0
CCOC(=O)C(NC(=O)c1ccccc1)=C(C)C | 0 | -12 | x | x | -2
COC(=O)C(NC(=O)c1ccccc1)=C(C)C | 94* | -16 | 5 | x | -5
CCCN1[C@H](C(=O)NC2CCC2)[C@@H](CO)[C@@H]2Cn3c(ccc(-c4ccccc4F)c3=O)[C@@H]21 | 5 | x | x | x | x
CC(C)C1C(C#N)=C(N)Oc2n[nH]c(-c3ccccc3)c21 (stereo unspecified) | x | 18 | -2 | x | -2
CC(C)c1[nH]nc2c1C(C(C)C)C(C#N)=C(N)O2 (stereo unspecified) | 72* | -17 | 17 | -5 | 1
ClN=C1C=CC=CC1=NCl | x | x | x | x | 0
CCN(CC)C(=O)CSc1ccccc1N | 116* | -11 | 5 | x | -3
CCN(Cc1ccccc1)C(=O)CSc1ccccc1C(=O)O | x | x | x | 1 | -1
Cc1cc2c3c(c1)C1(SCC(=O)N1c1ccc(F)cc1)C(=O)N3C(C)(C)CC2C (stereo unspecified) | 110* | -16 | -59 | -7 | 2
C[C@H]1CN([C@@H](C)CO)C(=O)Cc2cc(NC(=O)Cn3cnnn3)ccc2O[C@@H]1CN(C)Cc1ccc2c(c1)OCO2 | 9 | -9 | 2 | x | x
Cc1ccc(S(=O)(=O)c2cccc(S(=O)(=O)N3CCOCC3)c2)cc1S(=O)(=O)N1CCOCC1 | x | -8 | 7 | x | -2
Cc1ccc(S(=O)(=O)c2cccc(S(=O)(=O)N3CCCC3)c2)cc1S(=O)(=O)N1CCCC1 | 90* | -14 | -17 | 7 | 0
CCOC(=O)N1CCN(C(=O)C[C@H]2C[C@@]3(C(=O)OC)C(=C[C@H](COCc4ccccc4)O[C@@H]3C)N(Cc3ccc4c(c3)OCO4)C2=O)CC1 | x | x | x | 2 | x
CCNC(=S)NNC(=O)c1cccn(Cc2ccc(Cl)cc2Cl)c1=O | 82* | -38 | 2 | -16 | 4
CC(C)C(=O)N(c1ccc2oc(=O)sc2c1)S(=O)(=O)c1ccccc1 | 106* | -15 | -5 | x | -3
COc1ccc(S(=O)(=O)N(C)C[C@@H]2Oc3c(NC(=O)Nc4ccc(F)cc4)cccc3C(=O)N([C@@H](C)CO)C[C@H]2C)cc1 | -21 | x | 6 | x | x
O=C(c1ccco1)N(Cc1ccco1)c1ccc(O)cc1 | 118* | -13 | -1 | x | 2
Cc1ccc(CN(Cc2ccco2)C(=O)c2ccco2)cc1 | -1 | -26 | x | -1 | 1
CCOC(=O)C1(CCOC)CCN(Cc2nc(-c3cccs3)oc2C)CC1 | 86* | -3 | -7 | -16 | -1
COc1ccc(S(=O)(=O)N(C)C[C@H]2Oc3ccc(NS(=O)(=O)c4ccc(Cl)cc4)cc3CC(=O)N([C@H](C)CO)C[C@H]2C)cc1 | -2 | 4 | -6 | 3 | x
CCC1(C)Cc2c(sc3[nH]c(=O)[nH]c(=O)c23)CS1 (stereo unspecified) | 100* | -20 | -14 | x | 0
COc1ccc(Cl)cc1NS(=O)(=O)c1c(C)[nH]c(=O)[nH]c1=O | 87* | -5 | 8 | 6 | 1
Cc1ccc(Cl)cc1NS(=O)(=O)c1c(C)[nH]c(=O)[nH]c1=O | -2 | -14 | 7 | -8 | 0
COc1cccc(N2CCN(c3ncnc4c3[nH]c3ccc(F)cc34)CC2C)c1 (stereo unspecified) | -261 | -3 | 77* | x | -2

Molecules listed so far that have four or more nitrogen atoms (6):
SMILES | C2C12 statin | Yeast UUG start | PGC1a acetyl inh | FN deposition inh | hiPSC survival
CC(C)C1C(C#N)=C(N)Oc2n[nH]c(-c3ccccc3)c21 (stereo unspecified) | x | 18 | -2 | x | -2
CC(C)c1[nH]nc2c1C(C(C)C)C(C#N)=C(N)O2 (stereo unspecified) | 72* | -17 | 17 | -5 | 1
C[C@H]1CN([C@@H](C)CO)C(=O)Cc2cc(NC(=O)Cn3cnnn3)ccc2O[C@@H]1CN(C)Cc1ccc2c(c1)OCO2 | 9 | -9 | 2 | x | x
CCNC(=S)NNC(=O)c1cccn(Cc2ccc(Cl)cc2Cl)c1=O | 82* | -38 | 2 | -16 | 4
COc1ccc(S(=O)(=O)N(C)C[C@@H]2Oc3c(NC(=O)Nc4ccc(F)cc4)cccc3C(=O)N([C@@H](C)CO)C[C@H]2C)cc1 | -21 | x | 6 | x | x
COc1cccc(N2CCN(c3ncnc4c3[nH]c3ccc(F)cc34)CC2C)c1 (stereo unspecified) | -261 | -3 | 77* | x | -2

Carrying on.
SMILES | C2C12 statin | Yeast UUG start | PGC1a acetyl inh | FN deposition inh | hiPSC survival
O=C(c1cccnc1)N1CC2(C1)[C@H](c1ccccc1)[C@H](CO)N2CC1CC1 | x | x | -2 | x | x
O=c1cc2c(nn1Cc1ccc(F)cc1)-c1ccccc1CC2 | x | x | x | x | 4
Fc1ccc(CO/N=C/C2=C(Cl)c3ccccc3CC2)cc1 | x | x | 79* | x | 4
CC(C)CC#Cc1ccc2c(c1)O[C@@H](CN(C)C(=O)Cc1ccncc1)[C@H](C)CN([C@@H](C)CO)S2(=O)=O | -10 | -8 | -3 | x | x
Cc1cc(C)nc(-n2nc(C)c3c(C(F)F)cc(C)nc32)n1 | 115* | -23 | 6 | x | 7
Cc1cc(C)nc(-n2nc(C)c3c(C(F)(F)F)cc(=O)[nH]c32)n1 | x | -26 | 3 | -10 | 11
CN(C)CCCNS(=O)(=O)c1ccc(N2CCC(c3ccc(Cl)cc3)=N2)cc1 | x | x | x | 41* | x
COc1ccc2nc(N3CCCC(C(=O)NCCCN4CCN(C)CC4)C3)sc2c1 (stereo unspecified) | 8 | -8 | 70* | 1 | -2
CCOc1ccc2nc(N3CCCC(C(=O)NCCCN4CCCCC4)C3)sc2c1 (stereo unspecified) | 2 | 6 | -4 | 4 | 0
O=C(C[C@@H]1C=C[C@@H](NC(=O)Nc2ccc(F)cc2)[C@H](CO)O1)NCc1ccccn1 | 3 | -13 | -6 | 2 | x
COc1cc(C(=O)Nc2nnc(-c3sccc3C)s2)cc(OC)c1OC | 98* | -12 | -13 | 9 | 1
CCOCc1nnc(NC(=O)c2cc(OC)c(OC)c(OC)c2)s1 | -4 | -7 | 5 | 2 | 1
CCC(c1nc2ccccc2c(=O)n1CCCn1ccnc1)N1C(=O)c2ccccc2C1=O (stereo unspecified) | -2 | -10 | 4 | 6 | 1
CCC(c1nc2ccccc2c(=O)n1CCN1CCOCC1)N1C(=O)c2ccccc2C1=O (stereo unspecified) | 141* | -2 | -18 | -12 | -1
O=c1c2ccccc2sn1-c1cc(S(=O)(=O)N2CCOCC2)ccc1N1CCOCC1 | 26 | 6 | -1 | 50* | -1
COc1ccccc1CNC(=O)C[C@H]1C[C@@H]2c3cc(N(C)C)ccc3O[C@@H]2[C@@H](CO)O1 | -14 | x | -6 | -5 | x
CC1=Nn2c(nnc2-c2n[nH]c3c2CCC3)SC1 | -15 | -6 | 5 | x | -2
Fc1ccc(C2=Nn3c(nnc3-c3n[nH]c4c3CCC4)SC2)cc1 | 114* | -18 | -13 | x | 0
Cc1oc(-c2ccc(Cl)cc2)cc1C(=O)O | 6 | x | x | 3 | 1
Cc1oc(-c2ccc(Cl)cc2)[n+]([O-])c1C | 76* | -21 | 2 | -6 | 1
C[C@@H]1CN([C@H](C)CO)C(=O)c2cc(NC(=O)C3CCCCC3)ccc2O[C@@H]1CN(C)S(=O)(=O)c1cn(C)cn1 | 7 | 5 | 0 | 1 | x
CCCCn1c(SCC(=O)Nc2ccc3c(c2)OCCO3)nnc1C(CC)N(C)C (stereo unspecified) | 1 | -5 | x | 3 | 1
CCCCn1c(SCC(=O)NCc2ccc3c(c2)OCO3)nnc1C(CC)N(C)C (stereo unspecified) | 1 | 13 | 44* | -1 | 0
CCOc1ccccc1C(=O)n1nc(C)cc1C | 114* | -20 | -4 | x | 0
CC(C)CNC(=O)c1coc(=O)c(Br)c1 | -75 | -16 | -61 | active | 3
C=CCCC(=O)N1C[C@H]2CCN(C)[C@H]2C[C@H]1c1ccccc1Br | x | x | x | -1 | x
